Patent publication US7507792B2, “MDA-7 proteins and methods of use thereof” (The Trustees of Columbia University In The City of New York, priority 1993, dated 2009)

Legend:
p21 protein = experiment: Immunoprecipitation of p21 in H0-1 cells; type: cell-based, human; settings: IFN-β 2000 units/ml, MEZ 10 ng/ml
Method: Immunoprecipitation analyses were performed as described previously (Duigou et al., 1991; Su et al., 1993; Jiang et al., 1994b). Logarithmically growing H0-1 cells were either untreated or treated for 24, 48, 72 or 96 h with IFN-β (2000 units/ml), MEZ (10 ng/ml) or IFN-β+MEZ (2000 units/ml+10 ng/ml) in 10-cm plates. Cultures were starved of methionine for 1 h at 37° C. in methionine-free medium, cells were concentrated by pelleting and labeled for 1 h (p53) or 4 h (p21 and Actin) at 37° in 1 ml of the same medium with 100 μCi of [^35S] (NEN; Express ^35S). After labeling, the cells were washed twice with ice-cold phosphate-buffered saline and lysed for 1 h on ice by the addition of RIPC (20 mM Tris-base, pH 7.5, 500 mM NaCl, 0.05% Nonidet P-40, 100 μg/ml phenylmethylsulfonyl fluoride and 0.02% sodium azide). The lysate was clarified by centrifugation in an Eppendorf microfuge at 10,000×g for 10 min at 4° C. H0-1 samples containing 4×10^6 counts were incubated with 2 μg of p53 monoclonal antibody (Ab1; PAb421) (Oncogene Sciences), WAF1/CIP1 (C-19) (Santa Cruz Biotechnology) (or MDA-6 peptide-derived) rabbit polyclonal IgG or actin monoclonal antibody (Oncogene Sciences) with rocking at 4° C. for 24 h. Labeled cell lysates were also prepared from F0-1, L0-1, SH-1, WM239, FM516-SV, SW480, MeWo, human skin fibroblasts and Saos-2 cells. […]

mda-6 = mda-6 expression (Northern blotting); type: cell-based, human; settings: H0-1
Method: The mass excision of the library was performed using ExAssist helper phage as described above. The SOLR strain of Escherichia coli and cDNA phagemids were mixed at 37° C. for 15 min and plated onto LB plates containing ampicillin and IPTG/X-gal. White colonies were chosen at random, isolated and grown in LB medium. Plasmid minireps and restriction enzyme digestions were performed to confirm the presence of inserts. The inserts were isolated and used as robes for Northern blotting analysis (5,25). […] Radiolabeled probes were generated by random oligonucleotide priming (25). Prehybridization, hybridization, posthybridization washes, and autoradiography were performed as described (5,18,25).
Total cytoplasmic RNA was isolated and Northern blotting hybridization was performed as described (Reddy et al., 1991; Su et al., 1991; Jiang et al., 1992). Ten μg of RNA was denatured with glyoxal/DMSO, electrophoresed on 1.0% agarose gels, transferred to nylon membranes and hybridized to a ^32P-labeled p53 probe (Baker et al., 1990). […] Following hybridization, the filters were washed and exposed for autoradiography (Reddy et al., 1991; Su et al., 1991; Jiang et al., 1992). mda-6 and GAPDH gene expression were also determined by reverse transcription-polymerase chain reaction (RT-PCR) as described (Adollahi et al., 1991; Lin et al., 1994; Jiang et al., 1994b). […]

B1: IFN-β: Recombinant human IFN-β, with a serine substituted for a cysteine at position 17 of the molecule (protein)
chain: MSYNLLGFLQRSSNFQCQKLLWQLNGRLEYCLKDRMNFDIPEEIKQLQQFQKEDAALTIYEMLQNIFAIFRQDSSSTGWNETIVENLLANVYHQINHLKTVLEEKLEKEDFTRGKLMSSLHLKRYYGRILHYLKAKEYSHCAWTIVRVEILRNFYFINRLTGYLRN
For B1, the “p21 mRNA and protein” value (p21 protein; 24 h) was “induced”, the p21 protein level (p21 protein; over 48, 72, 96 h) was “Increases” and the mda-6 expression (mda-6; 24 hours, doses of FIG. 19, phenyl butyrate 24 hours, 4 or 7 days) was “increased expression; also recorded: smaller induction of mda-6 expression”. The mda-6 expression (mda-6; 96 hours, doses of FIG. 15 legend) was “no significant or reduced alteration in expression”.

Entries after “also recorded” stand apart in the source; their conditions may differ.
